From BindingDB's records for doi:10.1124/jpet.105.089839 (F. Hoffmann-La Roche, 2005)
“And” between values parts separate entries of the source, which are not always exact repeats. Identical values can stand only once.

Protein sequences, listed by entry. Tags and fused reporters are not part of them.
UniProt P41594, whole entry: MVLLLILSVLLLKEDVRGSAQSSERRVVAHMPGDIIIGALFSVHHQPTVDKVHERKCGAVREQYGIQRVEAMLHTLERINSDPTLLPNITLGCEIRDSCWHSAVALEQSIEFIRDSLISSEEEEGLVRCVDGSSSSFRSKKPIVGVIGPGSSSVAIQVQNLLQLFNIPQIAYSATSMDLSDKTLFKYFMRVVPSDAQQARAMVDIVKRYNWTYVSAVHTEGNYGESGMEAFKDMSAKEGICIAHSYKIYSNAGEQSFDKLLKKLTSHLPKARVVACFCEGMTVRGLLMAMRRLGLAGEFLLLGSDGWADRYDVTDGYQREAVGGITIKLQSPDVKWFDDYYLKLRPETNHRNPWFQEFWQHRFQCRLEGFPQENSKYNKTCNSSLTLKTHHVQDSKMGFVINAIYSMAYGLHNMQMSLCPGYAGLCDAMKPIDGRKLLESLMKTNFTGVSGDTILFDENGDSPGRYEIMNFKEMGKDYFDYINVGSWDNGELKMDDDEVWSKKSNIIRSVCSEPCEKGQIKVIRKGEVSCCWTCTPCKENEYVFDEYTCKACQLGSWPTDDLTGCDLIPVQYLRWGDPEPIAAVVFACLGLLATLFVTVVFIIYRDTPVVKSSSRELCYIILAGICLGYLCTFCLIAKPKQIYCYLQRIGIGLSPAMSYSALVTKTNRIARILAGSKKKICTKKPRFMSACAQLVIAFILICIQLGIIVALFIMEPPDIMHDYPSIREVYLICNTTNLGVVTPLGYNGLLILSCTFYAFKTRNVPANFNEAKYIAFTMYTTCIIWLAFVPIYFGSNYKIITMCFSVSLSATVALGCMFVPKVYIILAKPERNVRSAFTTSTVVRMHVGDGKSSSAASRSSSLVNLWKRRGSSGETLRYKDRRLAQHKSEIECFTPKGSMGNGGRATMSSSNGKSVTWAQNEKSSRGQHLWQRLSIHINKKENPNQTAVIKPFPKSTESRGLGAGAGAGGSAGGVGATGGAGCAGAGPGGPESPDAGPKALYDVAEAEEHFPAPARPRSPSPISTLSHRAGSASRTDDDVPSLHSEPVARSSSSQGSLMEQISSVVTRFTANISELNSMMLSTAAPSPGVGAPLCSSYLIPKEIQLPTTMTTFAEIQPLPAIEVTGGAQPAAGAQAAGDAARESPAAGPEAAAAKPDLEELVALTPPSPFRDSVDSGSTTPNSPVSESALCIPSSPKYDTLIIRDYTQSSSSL
UniProt P31424, whole entry: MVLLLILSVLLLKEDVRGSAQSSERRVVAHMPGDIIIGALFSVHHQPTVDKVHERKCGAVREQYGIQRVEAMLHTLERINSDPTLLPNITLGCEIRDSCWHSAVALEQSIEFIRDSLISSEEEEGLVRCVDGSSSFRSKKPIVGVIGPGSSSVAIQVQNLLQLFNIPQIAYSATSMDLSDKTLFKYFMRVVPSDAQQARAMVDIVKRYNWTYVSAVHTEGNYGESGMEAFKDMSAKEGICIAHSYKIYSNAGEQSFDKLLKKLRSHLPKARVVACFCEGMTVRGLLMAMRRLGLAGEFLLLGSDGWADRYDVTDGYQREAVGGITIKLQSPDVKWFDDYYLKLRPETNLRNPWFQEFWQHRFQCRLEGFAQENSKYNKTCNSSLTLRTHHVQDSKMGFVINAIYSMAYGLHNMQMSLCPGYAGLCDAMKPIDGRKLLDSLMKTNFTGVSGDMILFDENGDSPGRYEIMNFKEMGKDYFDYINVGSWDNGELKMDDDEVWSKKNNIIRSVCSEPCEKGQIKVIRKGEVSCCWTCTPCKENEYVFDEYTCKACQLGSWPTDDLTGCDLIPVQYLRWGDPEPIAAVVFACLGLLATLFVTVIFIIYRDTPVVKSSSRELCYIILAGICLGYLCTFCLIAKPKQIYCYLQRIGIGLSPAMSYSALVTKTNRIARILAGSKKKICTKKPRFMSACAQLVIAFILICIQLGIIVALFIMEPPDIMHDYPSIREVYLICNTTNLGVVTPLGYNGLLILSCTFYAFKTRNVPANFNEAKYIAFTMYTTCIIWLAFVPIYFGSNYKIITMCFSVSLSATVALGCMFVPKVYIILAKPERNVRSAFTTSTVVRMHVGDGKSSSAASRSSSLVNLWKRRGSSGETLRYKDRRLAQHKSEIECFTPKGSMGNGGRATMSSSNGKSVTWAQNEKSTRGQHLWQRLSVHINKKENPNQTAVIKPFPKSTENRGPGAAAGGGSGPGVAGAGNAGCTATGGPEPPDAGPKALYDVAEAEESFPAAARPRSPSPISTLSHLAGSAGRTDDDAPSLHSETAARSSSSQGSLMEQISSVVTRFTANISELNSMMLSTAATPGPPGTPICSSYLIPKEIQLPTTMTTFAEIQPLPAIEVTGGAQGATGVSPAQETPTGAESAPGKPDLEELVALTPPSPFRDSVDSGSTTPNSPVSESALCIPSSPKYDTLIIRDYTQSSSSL

What was measured:
[1] = molecular target: Metabotropic glutamate receptor 5 (Homo sapiens, UniProt P41594)
[2] = molecular target: Metabotropic glutamate receptor 5 (Rattus norvegicus, UniProt P31424)

Row | Ki [1] | Ki [2] | Structure (SMILES)
1 | 6.7 nM and 3.3 nM and 28 nM | 8.7 nM and 3.1 nM | Cc1cccc(C#Cc2ccccc2)n1 [2-Methyl-6-phenylethynyl-pyridine]
2 | 14.1 nM and 5.3 nM | 17.8 nM and 5.4 nM | Cc1nc(C#Cc2cccnc2)cs1 [3-(2-(2-methylthiazol-4-yl)ethynyl)pyridine]
